Curated experimental data: vapor pressure values

Source: data files of OPERA 2.9 (Mansouri et al.), github.com/kmansouri/OPERA.

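The numbers are reported measurements, compiled and curated for the OPERA QSAR suite. One number stands for a compound and property, with no spread given. How each value was measured is not recorded, so precision varies. The measured form (salt, isomer or mixture) is not always the one drawn. Some upstream entries may be estimates or bounds without being marked so.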

Vapor pressures (log10 mmHg) refer to near room temperature, 15 to 30 °C; higher is more volatile.

For Nc1cccc(C(F)(F)F)c1 the data give log VP -0.372 (log10 mmHg).
For CN(C)C1CCCCC1 the data give log VP 0.376 (log10 mmHg).
For OCC1CO1 (stereo not drawn) the data give log VP -0.046 (log10 mmHg).
For C=CCOC(=O)C(C)(C)OC(=O)c1cc(-n2c(=O)cc(C(F)(F)F)n(C)c2=O)ccc1Cl the data give log VP -10.26 (log10 mmHg).
For CC(C)(Cl)[N+](=O)[O-] the data give log VP 1.139 (log10 mmHg).
For CCNc1nc(NCC)nc(SC)n1 the data give log VP -6.149 (log10 mmHg).
For Brc1ccc(Oc2ccc(Br)cc2)cc1 the data give log VP -4.128 (log10 mmHg).
For Clc1ccc(Cl)c(-c2cccc(Cl)c2Cl)c1 the data give log VP -4.015 (log10 mmHg).
For COC(=O)c1ccccc1S(=O)(=O)NC(=O)Nc1nc(C)nc(OC)n1 the data give log VP -11.6 (log10 mmHg).
For Clc1cc(Cl)c(-c2cc(Cl)c(Cl)c(Cl)c2)c(Cl)c1 the data give log VP -5.435 (log10 mmHg).
For CC(C)(C)c1ccc(O)c(-n2nc3ccccc3n2)c1 the data give log VP -4.663 (log10 mmHg).
For Clc1ccccc1C(Cl)Cl the data give log VP -1.28 (log10 mmHg).
For CC(C)(C)c1cc([N+](=O)[O-])cc([N+](=O)[O-])c1O the data give log VP -3.824 (log10 mmHg).
For CC(C)COC(=O)Cc1ccccc1 the data give log VP -1.709 (log10 mmHg).
For CCCCCCCCCCCCCCOC(=O)Cl the data give log VP -4.129 (log10 mmHg).
For CCCCOC(=O)CC(SP(=S)(OCC(CC)CCCC)OCC(CC)CCCC)C(=O)OCCCC (stereo not drawn) the data give log VP -3.723 (log10 mmHg).
For C=C(Cl)CN=C=S the data give log VP -0.072 (log10 mmHg).
For NCCc1ccccc1 the data give log VP -0.572 (log10 mmHg).
For CCOC1=CC2=CC[C@@H]3[C@H](CC[C@]4(C)C(=O)CC[C@@H]34)[C@@]2(C)CC1 the data give log VP -8.303 (log10 mmHg).
For Clc1ccc(C(Cl)(Cl)Cl)c(Cl)c1 the data give log VP -2.824 (log10 mmHg).
For COc1cc(OC)nc(NC(=O)NS(=O)(=O)c2cc(NC=O)ccc2C(=O)N(C)C)n1 the data give log VP -12.5 (log10 mmHg).
For Clc1cccc(-c2cc(Cl)ccc2Cl)c1 the data give log VP -3.575 (log10 mmHg).
For C#CC1(O)CCCCC1 the data give log VP -0.523 (log10 mmHg).
For O=S(=O)(F)C(F)(F)C(F)(F)C(F)(F)C(F)(F)C(F)(F)C(F)(F)C(F)(F)C(F)(F)F the data give log VP 1 (log10 mmHg).
For CCCCC(CC)C(=O)Cl (stereo not drawn) the data give log VP -0.005 (log10 mmHg).
For CN1C[C@H](C(=O)O)C=C2c3cccc4[nH]cc(c34)C[C@H]21 the data give log VP -9.639 (log10 mmHg).
For COC(=O)[C@H]1CN(C)[C@@H]2Cc3c[nH]c4cccc(c34)[C@@]2(OC)C1 the data give log VP -9.639 (log10 mmHg).
For Brc1cc(Br)c(Oc2ccc(Br)c(Br)c2)c(Br)c1 the data give log VP -6.417 (log10 mmHg).
For FC(F)(F)C(F)(C(F)(F)F)C(F)(C(F)(F)F)C(F)(F)F the data give log VP 2.285 (log10 mmHg).
For CN(C)C(=O)Nc1cccc(OC(=O)NC(C)(C)C)c1 the data give log VP -10.35 (log10 mmHg).
For C=CC(C#N)OC(C)=O (stereo not drawn) the data give log VP -0.709 (log10 mmHg).
For O=C(CCl)OC(=O)CCl the data give log VP -1.429 (log10 mmHg).
For Br.CCCNC1CCc2c(O)cccc2C1 (stereo not drawn) the data give log VP -9.639 (log10 mmHg).
For O=C(CC(CP1(=O)Oc2ccccc2-c2ccccc21)C(=O)OCCO)OCCO (stereo not drawn) the data give log VP -7.251 (log10 mmHg).
For O=[N+]([O-])c1cccc(Cl)c1Cl the data give log VP -1.824 (log10 mmHg).
For O=C(NC(=O)c1c(F)cccc1F)Nc1ccc(OC(F)(F)C(F)OC(F)(F)F)c(Cl)c1 (stereo not drawn) the data give log VP -6.921 (log10 mmHg).
For CCOP(=S)(OCC)OC(=O)/C(=N\OC)c1csc(N)n1 the data give log VP -6.152 (log10 mmHg).
For COc1ccc(C=O)cc1O the data give log VP -4.334 (log10 mmHg).
For Clc1cc(Cl)cc(-c2ccccc2)c1 the data give log VP -3.235 (log10 mmHg).
For COC(=O)N(OC)c1ccccc1COc1ccn(-c2ccc(Cl)cc2)n1 the data give log VP -9.71 (log10 mmHg).
For CCS(=O)(=O)Oc1ccc2c(c1)C(C)(C)CO2 the data give log VP -4.68 (log10 mmHg).
For CC(=O)C1CCOC1=O (stereo not drawn) the data give log VP -2.487 (log10 mmHg).
For Brc1ccc(Oc2c(Br)cc(Br)cc2Br)c(Br)c1 the data give log VP -6.613 (log10 mmHg).
For C#CCOc1ccc(CCNC(=O)C(OCC#C)c2ccc(Cl)cc2)cc1OC (stereo not drawn) the data give log VP -8.152 (log10 mmHg).
For O=[N+]([O-])c1cc(Cl)ccc1Cl the data give log VP -2.417 (log10 mmHg).
For O=C(O)CCCOc1ccc(Cl)cc1Cl the data give log VP -7.15 (log10 mmHg).
For N#CCCC(Br)(C#N)CBr (stereo not drawn) the data give log VP -4.299 (log10 mmHg).
For Clc1ccc(Cl)c(-c2ccccc2)c1Cl the data give log VP -3.185 (log10 mmHg).